## Curated experimental data: properties

Source: data files of OPERA 2.9 (Mansouri et al.), github.com/kmansouri/OPERA.

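The numbers are reported measurements, compiled and curated for the OPERA QSAR suite. A listed value is a point estimate from one report or more. Conditions of the individual experiments are not part of the data. Where a salt, mixture or single isomer is drawn, the source does not say that exactly this form was tested. Unmarked limits or estimates from the upstream databases cannot be ruled out.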

The melting point is given in degrees Celsius.
Boiling points are in °C, nominally at 760 mmHg.
logP is the log10 of the octanol-water partition coefficient; higher is more lipophilic.
Water solubility is log10 of mol/L, nominally at 25 °C; higher is more soluble.
Vapor pressures (log10 mmHg) refer to near room temperature, 15 to 30 °C; higher is more volatile.
The unbound fraction in human plasma runs from 0 (all bound) to 1 (all free).
Clint is human hepatic intrinsic clearance in µL/min per million cells; 0 means that no clearance was seen.
Cells with "–" have no entry in this list.

compound,name,mp (°C),bp (°C),logP (octanol/water),log S (log10 mol/L),log vapor pressure (log10 mmHg),fu,hepatic Clint (µL/min/10^6 cells)
COC(=O)C(C)CCC(=O)N(C)C (stereo not given),Methyl 5-(dimethylamino)-2-methyl-5-oxopentanoate,–,280,0.39,–,–,–,–
CN(C)CCc1c[nH]c2ccc(C[C@H]3COC(=O)N3)cc12,Zolmitriptan,–,–,1.6,-3.18,–,–,–
C=C[Si](C)(C)O[Si](C)(C)C=C,Divinyltetramethyldisiloxane,–,–,5.4,-5.954,0.96,–,–
CCCOC(C)OCCC,"Propane, 1,1'-[ethylidenebis(oxy)]bis-",–,160,–,–,0.404,–,–
COC(=O)CCc1cc(-n2nc3ccccc3n2)c(O)c(C(C)(C)C)c1,–,120.4,–,5.1,–,-7.87,–,–
Nc1ccc(/N=N/c2ccc(NS(=O)(=O)c3ccc(/N=N/c4c(S(=O)(=O)[O-])cc5cc(S(=O)(=O)[O-])c(/N=N/c6ccc([N+](=O)[O-])cc6)c(N)c5c4O)cc3)cc2)c(N)c1.[Na+].[Na+],C.I. Acid Brown 210,330,–,-3.1,–,–,–,–
C[C@@H]1C[C@H]2[C@@H]3CCC4=CC(=O)CC[C@]4(C)[C@H]3CC[C@]2(C)[C@H]1C(=O)CO,"21-Hydroxy-16 alpha-methyl-4-pregnene-3,20-dione",105,–,3.24,-3.838,-9.227,–,–
O=C(O)COCCOCCOCC(=O)O,"2,2'-(Oxybis(2,1-ethanediyloxy))bisacetic acid",-29.05,–,–,–,-6.201,–,–
C=CC(C)(C)O,2-Methyl-3-buten-2-ol,–,–,0.66,–,1.357,–,–
N#CSCSc1nc2ccccc2s1,2-(thiocyanomethylthio)benzothiazole,–,–,–,–,–,0.331,29.6
CCCCOC(=O)CC(O)(CC(=O)OCCCC)C(=O)OCCCC,Tributyl citrate,–,–,3.5,-3.545,–,–,–
C=CC(C)C(=O)OCC (stereo not given),Ethyl 2-methylbut-3-enoate,–,–,2.2,-1.576,–,–,–
CC1CNCC(C)O1 (stereo not given),"2,6-Dimethyl morpholine",–,–,-0.126,–,0.495,–,–
O=c1[nH]c2ccccc2c(=O)n1CCCl,"3-(2-Chloroethyl)quinazoline-2,4(1H,3H)-dione",–,–,–,-3.575,-9.608,–,–
CNC(=O)c1cc(Cl)ccn1.Cl,–,–,–,1.3,–,-2.995,–,–
CCOC(=O)c1ccccc1C(=C1C=C(Br)C(=O)C(Br)=C1)c1cc(Br)c(O)c(Br)c1,Tetrabromophenolphthalein ethyl ester,210,–,–,–,–,0.0114,0
Cc1ccc(/N=N/c2c(O)c(C(=O)[O-])cc3ccccc23)c(S(=O)(=O)[O-])c1.[Na+].[Na+],C.I. Pigment Red 57,–,–,-0.11,-2.061,-9.907,–,–
CC(C)NO,"2-Propanamine, N-hydroxy-",–,–,0.267,0.41,-0.292,–,–
C=C(C)C(=O)OCCN(C)C,2-(Dimethylamino)ethyl methacrylate,–,–,1.13,–,-0.181,–,–
c1ccc(CN2CCN(Cc3ccccc3)CCN(Cc3ccccc3)CCN(Cc3ccccc3)CC2)cc1,"1,4,7,10-Tetrabenzyl-1,4,7,10-tetraazacyclododecane",–,–,2,-5.028,–,–,–
C/C=C\c1ccc(OCc2ccccc2)c(OC)c1,1-Benzyloxy-2-methoxy-4-(1-propenyl)benzene,–,–,4.02,-5.579,-4.722,–,–
COc1cc(/N=N/c2cc(S(=O)(=O)[O-])c3cccc(S(=O)(=O)[O-])c3c2)c(C)cc1NC(=O)Nc1cc(C)c(/N=N/c2cc(S(=O)(=O)[O-])c3cccc(S(=O)(=O)[O-])c3c2)cc1OC.[Na+].[Na+].[Na+].[Na+],C.I. Direct Yellow 34,–,–,-4.5,–,-9.545,–,–
CC1(C)CC(NCCC#N)CC(C)(CNCCC#N)C1 (stereo not given),–,-52,–,1.9,–,-5.642,–,–
CCCCCCCCNC(=O)Nc1ccc(Cc2ccc(NC(=O)NCCCCCCCC)cc2)cc1,"N,N'-[Methylenedi(4,1-phenylene)]bis(N'-octylurea)",217.5,–,–,-8.225,-13.95,–,–
CC(COC(=O)c1ccccc1)OC(=O)c1ccccc1 (stereo not given),Propylene glycol dibenzoate,–,–,3.9,-4.567,-3.347,–,–
CCCC(=O)OCn1cc2c(=O)n(COC(=O)CCC)cnc2n1,–,–,–,1.6,-3.554,–,–,–
CCCCCCCCCCCC(=O)OC1CC(C)(C)NC(C)(C)C1,"2,2,6,6-Tetramethylpiperidin-4-yl dodecanoate",7,–,–,-5.252,–,–,–

Excerpt, the final 3 entries:

compound,name,mp (°C),bp (°C),logP (octanol/water),log S (log10 mol/L),log vapor pressure (log10 mmHg),fu,hepatic Clint (µL/min/10^6 cells)
CC(COC(=O)c1ccccc1)OC(=O)c1ccccc1 (stereo not given),Propylene glycol dibenzoate,–,–,3.9,-4.567,-3.347,–,–
CCCC(=O)OCn1cc2c(=O)n(COC(=O)CCC)cnc2n1,–,–,–,1.6,-3.554,–,–,–
CCCCCCCCCCCC(=O)OC1CC(C)(C)NC(C)(C)C1,"2,2,6,6-Tetramethylpiperidin-4-yl dodecanoate",7,–,–,-5.252,–,–,–